AlphaSeq binding of Ab-95 light chain variants to a spike HR2 peptide

From the AlphaSeq antibody data of Engelhart et al. 2022 (doi:10.1038/s41597-022-01779-4), copy in the FLAb collection.

All variants were tested on one target, the spike HR2 peptide PDVDLGDISGINAS (SARS-CoV-2).

The variants keep the heavy chain, the linker and the frameworks of Ab-95 (scFv order VH, a 15-residue (Gly4Ser)3 linker, VL).
VH: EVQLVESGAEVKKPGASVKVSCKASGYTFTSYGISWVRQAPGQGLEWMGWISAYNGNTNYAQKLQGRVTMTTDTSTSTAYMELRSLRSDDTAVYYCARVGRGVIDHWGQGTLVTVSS
VL: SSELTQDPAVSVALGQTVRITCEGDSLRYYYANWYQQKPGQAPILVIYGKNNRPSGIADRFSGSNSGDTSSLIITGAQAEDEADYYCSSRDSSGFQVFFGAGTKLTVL

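In library AAYL52, one, two or three CDR residues were substituted; doubles and triples were drawn at random. In AlphaSeq, yeast of one mating type display the scFv and yeast of the other type display the target. Binding brings cells together so that they mate, and sequencing counts the barcode pairs among the diploids. A regression on co-assayed BCL2-family reference pairs converts the normalised counts of each replicate to an apparent Kd. Each pool was mated in three replicate cultures.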

The parent's light chain CDRs are EGDSLRYYYAN, GKNNRPS, SSRDSSGFQVF; each variant's own CDRs replace them letter for letter.
Kd is apparent (estimated from mating counts) and averaged on the log scale over replicates with a signal. Smaller is tighter.
"nd" marks a missing value. The strain was present, yet no cells mated with the target were sequenced in any replicate, which points to weak or no binding.

CDR-L1,CDR-L2,CDR-L3,apparent Kd,replicates with signal,signal with controls
EGDSLRYYYKN,GKNNRVS,SPRDSSGFQVF,8.1 µM,1 of 3,0 of 9
EGDSLRYYYAN,LKNNRPS,LSRDSSGFQVF,6.5 µM,2 of 3,6 of 9
EGDSLRYYYAN,GKNNRPS,SSRDSSGDMVM,290 nM,3 of 3,3 of 9
EGDSWDYYYAN,GKNNRMS,SSRDSSGFQVF,nd,0 of 3,3 of 9
EGDSLRYYYAN,GECNRPS,SSRDSSGFQVS,nd,0 of 3,2 of 9
EGDMLRYYIAN,GKNNKPS,SSRDSSGFQVF,16 µM,2 of 3,5 of 9
TGDLLRYYYAN,HKNNRPS,SSRDSSGFQVF,19 µM,3 of 3,5 of 9
EGDSLRYYYAN,GKIHRPS,SSRDSSGFQVH,13 µM,2 of 3,2 of 9
EGDSLRYMYAV,GKNNRPS,GSRDSSGFQVF,650 nM,3 of 3,3 of 9
EGDSIRYYYAN,GKLNRPS,SSRDSSGFQVK,nd,0 of 3,1 of 9
EGDSLRYYYSN,GKNNRPS,SSRDSSTFQVF,nd,0 of 3,4 of 9
EGDSLRYYYAN,GGNNRPS,SSPDSLGFQVF,71 nM,3 of 3,2 of 9
EGDSLRYYYAN,GKTNRWY,SSRDSSGFQVF,38 µM,2 of 3,1 of 9
EIDSLRYYMAN,GKNNRPS,SSRDSSGLQVF,7.9 µM,1 of 3,1 of 9
SGDSLRYYYAN,GKNNRPS,GSRDSSGFQVG,860 nM,3 of 3,3 of 9
EFDSLRYYYAN,GTNNRPS,SSRDSSGFNVF,2.2 µM,3 of 3,3 of 9
EGDSLRYYYAN,GKNNRKS,SSRMASGFQVF,26 µM,2 of 3,1 of 9
DGDSLRYYYAN,GKNNRPS,SIRDSSGFQVY,nd,0 of 3,2 of 9
EGDSLRYYYRN,GKNNRPS,LSRDSSGFQWF,nd,0 of 3,0 of 9
EGPSLRYYYAN,GKTNRDS,SSRDSSGFQVF,nd,0 of 3,1 of 9
EIDSLRYYYAH,GTNNRPS,SSRDSSGFQVF,3.0 µM,1 of 3,1 of 9
EWDSLRYYYAN,GKNNRPS,LIRDSSGFQVF,13 µM,1 of 3,4 of 9
EGDSLRYYSAN,GKNQRPS,SSRFSSGFQVF,290 nM,3 of 3,6 of 9

Further variants, results first:

apparent Kd,replicates with signal,signal with controls,CDR-L1,CDR-L2,CDR-L3
23 µM,1 of 3,3 of 9,EGDSWRYYYAN,GKNIRPS,SSRDPSGFQVF
24 µM,3 of 3,2 of 9,EGDSRRYYYAN,GTNNRPW,SSRDSSGFQVF
3.0 µM,2 of 3,1 of 9,EGDSLRYYYAA,GKNNRPS,SSRDTSIFQVF
1.5 µM,3 of 3,1 of 9,EGDSLDYYYIN,GKNNRPS,SSPDSSGFQVF
82 µM,1 of 3,5 of 9,EHDSLRYYYAN,GKNNRCS,SYRDSSGFQVF
12 µM,2 of 3,6 of 9,EGDSLRYYYAH,PHNNRPS,SSRDSSGFQVF
nd,0 of 3,1 of 9,EGDSLAYYYAN,GKNNRPS,SCRDSFGFQVF
180 µM,1 of 3,4 of 9,DGDSRRYYYAN,GKNNRPS,SGRDSSGFQVF
7.8 µM,3 of 3,7 of 9,EGDSLRAYYAQ,GKNNRPS,SSRDSSGFQVF
nd,0 of 3,0 of 9,EGDSLRYYYAL,GVNNRPS,YSRDSSGFQVF
nd,0 of 3,0 of 9,ETDSLRYYYAN,GKNNRPS,SSRISSGFQYF
25 µM,3 of 3,4 of 9,IGDSLRYYYAQ,QKNNRPS,SSRDSSGFQVF
10 µM,2 of 3,3 of 9,EGDSLRYYYAN,GKNNRPS,SSRDMSGYQCF
130 nM,3 of 3,3 of 9,EQKSLHYYYAN,GKNNRPS,SSRDSSGFQVF
5.3 µM,1 of 3,0 of 9,EGDMLRYYYAK,GKNNRPS,SSRNSSGFQVF
nd,0 of 3,2 of 9,EGDSLRYYYWN,GKNNRPS,SSRASSKFQVF
23 µM,1 of 3,0 of 9,EGDSLRYYYAN,EKNNRPS,SSIDSSGFQVF
9.0 µM,3 of 3,1 of 9,EGDSLRYYYCN,AKNIRPS,SSRDSSGFQVF
3.0 µM,1 of 3,0 of 9,EGDSHRYYYAN,GKNNRAS,SSRDSSGFQYF
nd,0 of 3,0 of 9,EGDSLRYYYAL,GSNNRPS,SSRGSSGFQVF
210 µM,1 of 3,0 of 9,EGDSLRYYVAN,PKNNRPS,SSRDSSSFQVF
2.6 µM,1 of 3,4 of 9,EGDSLRYPYAN,GKNNRPS,SSRCSSGFQVW
nd,0 of 3,1 of 9,EGDSDRYYYAN,GKNNRPS,SSRDWPGFQVF

The last 3 entries again:

CDR-L1,CDR-L2,CDR-L3,apparent Kd,replicates with signal,signal with controls
EGDSLRYYVAN,PKNNRPS,SSRDSSSFQVF,210 µM,1 of 3,0 of 9
EGDSLRYPYAN,GKNNRPS,SSRCSSGFQVW,2.6 µM,1 of 3,4 of 9
EGDSDRYYYAN,GKNNRPS,SSRDWPGFQVF,nd,0 of 3,1 of 9

As a blank, each scFv also met three strains without target: over library AAYL52, 28% of these pairings were detected, typically at 8.2 µM and seldom below 800 nM. The control count says in how many pairings with the empty strains this scFv gave a signal.